In paper PMC5353780, “A novel benzo-heterocyclic amine derivative N30 inhibits influenza virus replication by depression of Inosine-5’-Monophospate Dehydrogenase activity” (Virology Journal, 2017):

Tests used:
A/FortMonmouth/1/1947 = assay: CPE assay in MDCK cells; format: cell-based, Influenza A virus (H1N1)
A/wuhan/359/1995 = assay: CPE assay in MDCK cells; format: cell-based, Influenza A virus (H3N2)
BV/shenzhen/155/2005 = assay: CPE assay in MDCK cells; format: cell-based, influenza B virus
BY/fujianxinluo/54/2006 = assay: CPE assay in MDCK cells; format: cell-based, influenza B virus
CVB1 (strain Conn-5) = assay: CPE assay; format: cell-based, Coxsackie virus B
CVB2 (strain Ohio-1) = assay: CPE assay; format: cell-based, Coxsackie virus B
CVB3 (strain Nancy) = assay: CPE assay; format: cell-based, Coxsackie virus B
CVB4 (strain J.V.B.) = assay: CPE assay; format: cell-based, Coxsackie virus B
CVB5 (strain Faulkner) = assay: CPE assay; format: cell-based, Coxsackie virus B
CVB6 (strain Schmitt) = assay: CPE assay; format: cell-based, Coxsackie virus B

## NC(=O)c1ncn([C@@H]2O[C@H](CO)[C@@H](O)[C@H]2O)n1 [RBV, Ribavirin]
A/FortMonmouth/1/1947
  SI: >121.95
A/wuhan/359/1995
  SI: >24.30
BV/shenzhen/155/2005
  SI: >117.65
BY/fujianxinluo/54/2006
  SI: >80.65
CVB1 (strain Conn-5)
  SI: >8.44
CVB2 (strain Ohio-1)
  SI: >8.81
CVB3 (strain Nancy)
  SI: >6.39
CVB4 (strain J.V.B.)
  SI: >8.10
CVB5 (strain Faulkner)
  SI: >16.67
CVB6 (strain Schmitt)
  SI: >4.39
